Values of other authors as cited in article PMC5325619.

Assays:
[1] = molecular target: chymotrypsin A (Bos taurus) (UniProt P00766)
[2] = molecular target: pancreatic elastase (Sus scrofa) (UniProt P00772)
trypsin (Bos taurus) = trypsin (Bos taurus) (UniProt P00760)

Ki [1]: 1.3 nM
Ki [2]: 2600 nM
Ki (trypsin (Bos taurus)): 0.0006 nM
Substance: BPTI (from UniProt P00974)
